A short description of this experiment: Inhibition of P-glycoprotein (unknown origin). Also noted: species or system Homo sapiens.

`O[C@@H](COc1cccc2ncccc12)CN1CCN([C@@H]2c3ccccc3[C@@H]3[C@H](c4ccccc42)C3(Cl)Cl)CC1` yielded an IC50 of 400 nM.

By IC50 is commonly meant the concentration that inhibits the measured activity by half. Read a high IC50 as lower potency.

Values taken from ChEMBL document CHEMBL3826914, “Selective photodepletion of malignant T cells in extracorporeal photopheresis with selenorhodamine photosensitizers” (Bioorg Med Chem, 2016).
